Columns and labels:
[1] = target: 5-hydroxytryptamine receptor 7 (Rattus norvegicus, UniProt P32305)
[2] = target: 5-hydroxytryptamine receptor 1A (Rattus norvegicus, UniProt P19327)

Amino acid sequences for entries named in this document (tags omitted).
UniProt P32305, whole entry: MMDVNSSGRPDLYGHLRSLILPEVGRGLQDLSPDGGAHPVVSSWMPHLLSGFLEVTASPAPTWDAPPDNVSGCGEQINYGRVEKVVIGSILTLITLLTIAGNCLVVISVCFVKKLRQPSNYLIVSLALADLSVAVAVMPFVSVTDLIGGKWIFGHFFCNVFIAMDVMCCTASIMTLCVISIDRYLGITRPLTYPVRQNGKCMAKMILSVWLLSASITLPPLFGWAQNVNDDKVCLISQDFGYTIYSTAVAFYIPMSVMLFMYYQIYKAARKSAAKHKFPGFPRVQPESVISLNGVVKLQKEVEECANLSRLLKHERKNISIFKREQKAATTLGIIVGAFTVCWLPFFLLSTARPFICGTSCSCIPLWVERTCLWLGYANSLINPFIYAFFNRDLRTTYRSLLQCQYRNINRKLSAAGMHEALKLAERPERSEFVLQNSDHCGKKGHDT
UniProt P19327, whole entry: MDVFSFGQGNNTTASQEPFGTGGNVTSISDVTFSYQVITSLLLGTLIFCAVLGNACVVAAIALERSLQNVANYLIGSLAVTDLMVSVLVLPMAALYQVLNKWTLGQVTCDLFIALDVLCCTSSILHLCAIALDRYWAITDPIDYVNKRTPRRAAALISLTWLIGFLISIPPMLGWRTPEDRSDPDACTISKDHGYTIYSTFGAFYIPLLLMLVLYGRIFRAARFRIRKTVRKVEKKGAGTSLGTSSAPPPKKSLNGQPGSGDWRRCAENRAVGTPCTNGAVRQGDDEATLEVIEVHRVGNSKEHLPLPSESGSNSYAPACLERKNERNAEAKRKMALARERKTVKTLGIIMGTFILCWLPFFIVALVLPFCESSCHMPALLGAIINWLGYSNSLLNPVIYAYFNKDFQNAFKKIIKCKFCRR

Ki [1]: 545 nM
Ki [2]: 545 nM
SMILES: NCC(O)c1ccc(O)c(O)c1 (stereo not drawn) [Noradrenaline,(+)]
